The conditions of the data set: individual parameters from population PK, elimination phase half-life, n = 12, median (IQR). Here is the method: The estimation of parameters, including fixed and random effects, was conducted using first-order conditional estimation with the interaction method. This enables modelling of the interaction between the IIV in PK parameters and the residual variability (RV) in measured concentrations. […] Each model adhered to first-order kinetics, except the zero-order infusion processes. Each PK parameter in the model was described by the equation θi = θ × exp (ηi), where θ denotes the typical value of the PK parameter, θi is the individual PK parameter value for each participant, and ηi is a random variable encapsulating IIV. We hypothesised that IIV is normally distributed, with a mean of zero and variance ω^2. RV was modelled as normally distributed with a mean of zero and a variance σ^2. Additionally, we evaluated additive, proportional, and combined additive-proportional error models. […] The variability in the final model predictions was analysed using the median and 95% confidence intervals from 2000 bootstrap replicates. […] Covariates were assessed for both their statistical and clinical relevance, taking into account demographic factors (such as gender, age, weight, height, body mass index, and body surface area) and biochemical markers (including serum protein, albumin, creatinine, and cystatin C levels). […]

Take `CN[C@H](CC(C)C)C(=O)N[C@H]1C(=O)N[C@@H](CC(N)=O)C(=O)N[C@H]2C(=O)N[C@H]3C(=O)N[C@H](C(=O)N[C@H](C(=O)O)c4cc(O)cc(O)c4-c4cc3ccc4O)[C@H](O)c3ccc(c(Cl)c3)Oc3cc2cc(c3O[C@@H]2O[C@H](CO)[C@@H](O)[C@H](O)[C@H]2O[C@H]2C[C@](C)(N)[C@H](O)[C@H](C)O2)Oc2ccc(cc2Cl)[C@H]1O` [vancomycin]: the “t1/2β, Median (IQR)” value was 3.84 (3.63–4.26) h.
